In general, pKi refers to the negative decadic logarithm of the Ki, by convention in mol/L.

Amino acid sequences for entries named in this document (tags omitted).
UniProt P21397, whole entry: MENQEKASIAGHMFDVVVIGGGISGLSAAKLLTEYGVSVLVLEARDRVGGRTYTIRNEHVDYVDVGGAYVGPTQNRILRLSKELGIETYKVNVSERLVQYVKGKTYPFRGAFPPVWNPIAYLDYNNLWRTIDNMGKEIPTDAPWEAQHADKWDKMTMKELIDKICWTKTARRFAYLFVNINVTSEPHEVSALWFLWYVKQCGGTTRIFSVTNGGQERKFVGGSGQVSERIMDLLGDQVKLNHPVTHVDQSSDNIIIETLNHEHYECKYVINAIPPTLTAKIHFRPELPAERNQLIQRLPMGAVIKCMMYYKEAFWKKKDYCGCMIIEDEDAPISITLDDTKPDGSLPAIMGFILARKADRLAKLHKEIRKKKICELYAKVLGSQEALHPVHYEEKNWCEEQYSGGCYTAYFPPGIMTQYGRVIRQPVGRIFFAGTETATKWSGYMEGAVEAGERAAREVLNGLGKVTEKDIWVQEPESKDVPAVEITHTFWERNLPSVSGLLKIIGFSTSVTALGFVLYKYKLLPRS
UniProt P27338, whole entry: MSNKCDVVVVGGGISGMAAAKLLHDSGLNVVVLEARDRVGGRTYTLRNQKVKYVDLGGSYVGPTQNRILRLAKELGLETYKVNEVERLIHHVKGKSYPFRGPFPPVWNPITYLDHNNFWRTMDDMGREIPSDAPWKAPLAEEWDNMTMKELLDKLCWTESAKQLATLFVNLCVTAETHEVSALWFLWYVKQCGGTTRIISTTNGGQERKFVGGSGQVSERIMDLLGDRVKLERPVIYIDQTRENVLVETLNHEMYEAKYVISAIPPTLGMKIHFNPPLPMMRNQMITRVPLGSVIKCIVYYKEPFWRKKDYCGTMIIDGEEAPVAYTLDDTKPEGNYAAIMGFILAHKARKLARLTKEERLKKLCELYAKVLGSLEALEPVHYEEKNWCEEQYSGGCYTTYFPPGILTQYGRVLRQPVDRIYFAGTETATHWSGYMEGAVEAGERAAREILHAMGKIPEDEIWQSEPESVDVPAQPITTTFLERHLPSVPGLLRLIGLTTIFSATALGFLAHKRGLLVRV

Consider eight compounds from patent publication US9676701B2, “Cyclopropylamine derivatives useful as LSD1 inhibitors” (Oryzon Genomics, S.A., priority 2010, dated 2017).

For test [1], the target named is T1, MAO-A (Homo sapiens (Human), UniProt P21397). The settings on record: read-out: MAO-A (Ki).
A further test deals with MAO-B (Homo sapiens (Human), UniProt P27338). Particulars: read-out: MAO-B (Ki).
Test [2] addresses T1, MAO-A. Nature of the test: biochemical.

pKi: −log10 of the molar value. Counter-ions that a name gives are not always drawn. Like-named read-outs stand apart in the source and are kept apart here.

`N[C@H]1C[C@@H]1c1ccc(-c2cccc(NS(=O)(=O)c3ccccc3)c2)nc1` (relative stereo) [Example 64, N-(3-(5-((trans)-2-aminocyclopropyl)pyridin-2-yl)phenyl)benzenesulfonamide hydrochloride]: the pKi on MAO-A [1] and at MAO-B was 4.40 to 6.00 each time.
In the case of `N#Cc1ccccc1S(=O)(=O)Nc1cccc(-c2ccc([C@H]3C[C@@H]3N)cn2)c1` (relative stereo) [Example 101, N-(3-(5-((trans)-2-aminocyclopropyl)pyridin-2-yl)phenyl)-2-cyanobenzenesulfonamide hydrochloride], the pKi on MAO-A [1] and on MAO-B was 4.40 to 6.00 each time.
As for `N#Cc1ccc(O)c(-c2ccc([C@H]3C[C@@H]3N)cc2)c1` (relative stereo) [Example 87, 4′-((trans)-2-aminocyclopropyl)-6-hydroxybiphenyl-3-carbonitrile hydrochloride], the negative-log Ki (pKi) at MAO-B is 4.40 to 6.00.
As for `COc1cc(-c2ccc([C@H]3C[C@@H]3N)cn2)ccc1C` (relative stereo) [Example 22, (trans)-2-(6-(3-methoxy-4-methylphenyl)pyridin-3-yl)cyclopropanamine hydrochloride], the pKi at MAO-B is 4.40 to 6.00.
On to `N#Cc1ccc(S(=O)(=O)Nc2cccc(-c3ccc([C@H]4C[C@@H]4N)cn3)c2)cc1` (relative stereo) [Example 99, N-(3-(5-((trans)-2-aminocyclopropyl)pyridin-2-yl)phenyl)-4-cyanobenzenesulfonamide hydrochloride], for which the figures for the pKi on MAO-B and on MAO-A [2] were 4.40 to 6.00 and 6.00 to 7.00, respectively.
On to `COc1cc(Cl)cc(-c2ccc([C@H]3C[C@@H]3N)cn2)c1` (relative stereo) [Example 42, (trans)-2-(6-(3-chloro-5-methoxyphenyl)pyridin-3-yl)cyclopropanamine hydrochloride], for which the pKi on MAO-A [1] and on MAO-B was 4.40 to 6.00 throughout.
Consider `N[C@H]1C[C@@H]1c1ccc(-c2cc(O)cc(C(F)(F)F)c2)nc1` [Example 48, 3-(5-((trans)-2-amninocyclopropyl)pyridin-2-yl)-5-(trifluoromethyl)phenol hydrochloride], for which the pKi on MAO-A [1] and on MAO-B was 4.40 to 6.00 in each case.
With `CS(=O)(=O)Nc1ccc(O)c(-c2ccc([C@H]3C[C@@H]3N)cn2)c1` (relative stereo) [Example 90, N-(3-(5-((trans)-2-aminocyclopropyl)pyridin-2-yl)-4-hydroxyphenyl)methanesulfonamide hydrochloride], the pKi on MAO-A [1] and at MAO-B was 4.40 to 6.00 each time.
